Measurements as given in patent US10479814B2, “Adenosine receptor activation reagent and the uses of thereof” (Zhejiang Subtropical Crops Research Institute, priority 2014, dated 2019).

By UniProt entry, the sequences of proteins in these tests, tags left out.
UniProt P25099, whole entry: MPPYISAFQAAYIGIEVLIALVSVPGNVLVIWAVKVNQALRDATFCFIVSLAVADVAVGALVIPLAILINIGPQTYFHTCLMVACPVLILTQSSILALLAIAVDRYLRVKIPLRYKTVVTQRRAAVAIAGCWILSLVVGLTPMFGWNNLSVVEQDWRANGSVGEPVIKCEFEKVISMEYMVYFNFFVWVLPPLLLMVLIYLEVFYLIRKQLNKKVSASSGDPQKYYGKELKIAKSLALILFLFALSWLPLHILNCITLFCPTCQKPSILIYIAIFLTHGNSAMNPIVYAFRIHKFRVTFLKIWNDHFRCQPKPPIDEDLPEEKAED

Target: T1, rat cerebral cortex adenosine A1 receptor (Rattus norvegicus, UniProt P25099)
T1 construct: DPCPX; from tissue; host or cells: Wistar rat cerebral cortex
Experiment: adenosine A1 receptor ligand binding test ([3H]DPCPX)
Details: saturation curve, Scatchard

## [3H]CCC([3H])n1c(=O)c2[nH]c(C3CCCC3)nc2n(C([3H])CC[3H])c1=O (stereo not shown) [[^3H]-DPCPX, reference compound]
  Bmax of A1 binding: 2140 fmol/mg and 2290 fmol/mg

Where “and” joins values, the source holds several entries; their conditions need not be identical. Equal values may be shown once.
